Measured values from patent US20240343761A1, “APELINERGIC MACROCYCLES AND USES THEREOF” (priority 2021, published 2024).

Target: T1, human APJ (hAPJ) (Homo sapiens, UniProt P35414)
T1 construct: expressed in transfected cells; cell membranes
T1 sequence (P35414 1-380): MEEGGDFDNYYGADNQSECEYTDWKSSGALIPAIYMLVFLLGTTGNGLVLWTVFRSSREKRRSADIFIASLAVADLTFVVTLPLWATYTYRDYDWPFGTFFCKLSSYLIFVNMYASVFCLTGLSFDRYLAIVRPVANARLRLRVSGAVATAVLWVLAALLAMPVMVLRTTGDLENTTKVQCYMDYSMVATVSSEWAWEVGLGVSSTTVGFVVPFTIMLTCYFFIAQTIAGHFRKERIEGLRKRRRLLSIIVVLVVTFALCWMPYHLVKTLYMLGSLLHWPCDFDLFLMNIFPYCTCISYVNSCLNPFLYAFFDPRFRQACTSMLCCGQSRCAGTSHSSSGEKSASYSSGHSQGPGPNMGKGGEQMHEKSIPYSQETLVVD
Assay: Competitive radioligand binding ([125I][Nle75,Tyr77][Pyr1]-Ape13) on membranes of HEK293 cells stably expressing human APJ
Conditions: Table I; mean ± SEM
Experimental: HEK293 cells stably expressing YFP-tagged human APJ were cultured in DMEM medium supplemented with 10% FBS, at 37° C. under a humid atmosphere maintaining 5% CO2. Antibiotic G418 (400 μg/mL) was added to maintain a selection pressure for APJ-expressing cells while penicillin/streptomycin (0.1%) were used to prevent bacterial contamination.
Binding experiments were performed on cell membranes of HEK293 stably expressing the YFP-tagged human APJ receptor. Cells were frozen at −80° C. for storage and quickly thawed right before the experiments (1 min at 37° C.). […] The precipitate (cell membranes) was suspended in binding buffer (50 mM Tris-HCl, 0.2% BSA, pH 7.4). Binding assays were run in 96-well plates. […] (820 Ci/mmol)^3 and test ligand with a range of concentrations from 10^−1 to 10^−11 M in a total volume of 200 μL for 1 h at room temperature.
The incubation mixtures were filtered through a glass fiber filter (Millipore, pre-absorbed of PEI 0.5% for 2 h at 4° C.) to remove unbound ligands, and the filter membranes were washed three times with 170 μL cold binding buffer (4° C.). The γ emission was measured using a 1470 Wizard γ-counter from PerkinElmer (Waltham, USA) (80% efficiency).

Ki: 3 ± 0.2 nM
Structure (SMILES): CCCC[C@H](NC(=O)[C@@H]1CCCN1C(=O)CNC(=O)[C@H](CCCCN)NC(=O)[C@@H]1CC=CC[C@H](NC(=O)[C@H](CCCNC(=N)N)NC(=O)[C@@H]2CCC(=O)N2)C(=O)N[C@@H](CCCNC(=N)N)C(=O)N[C@@H](CC(C)C)C(=O)N[C@@H](CO)C(=O)N1)C(=O)N1CCC[C@H]1C(=O)N[C@@H](Cc1ccccc1)C(=O)O [Compound 97, Pyr-R-c[X-R-L-S-X]c-K-G-P-Nle-P-F, reference compound]
